The text below walks through data of PMC1868657 (International Journal of Medical Sciences, 2007).

In the test the target is T1, human SGLT2 (Homo sapiens, UniProt P31639).
T1 sequence (P31639 1-672): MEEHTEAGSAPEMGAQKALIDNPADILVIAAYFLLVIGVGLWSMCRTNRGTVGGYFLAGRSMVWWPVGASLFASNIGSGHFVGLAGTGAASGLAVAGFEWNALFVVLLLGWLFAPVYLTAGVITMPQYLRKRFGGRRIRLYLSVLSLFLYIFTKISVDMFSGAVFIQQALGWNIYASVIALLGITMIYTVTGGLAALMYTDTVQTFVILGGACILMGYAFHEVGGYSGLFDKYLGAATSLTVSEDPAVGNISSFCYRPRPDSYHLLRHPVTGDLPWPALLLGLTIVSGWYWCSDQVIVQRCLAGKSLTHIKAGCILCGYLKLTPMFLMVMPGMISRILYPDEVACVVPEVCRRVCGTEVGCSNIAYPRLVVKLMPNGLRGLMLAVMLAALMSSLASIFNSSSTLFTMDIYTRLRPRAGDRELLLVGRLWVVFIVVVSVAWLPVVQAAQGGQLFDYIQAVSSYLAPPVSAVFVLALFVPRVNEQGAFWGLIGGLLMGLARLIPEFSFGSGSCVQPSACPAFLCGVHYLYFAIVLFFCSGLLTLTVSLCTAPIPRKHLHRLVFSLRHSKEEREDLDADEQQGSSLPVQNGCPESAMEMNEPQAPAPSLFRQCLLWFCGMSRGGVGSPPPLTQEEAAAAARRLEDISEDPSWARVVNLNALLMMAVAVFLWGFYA
Briefly: Sodium-dependent [14C]AMG uptake in CHO cells expressing hSGLT2. It is filed as cell-based. Particulars: read-out: percent inhibition of sodium-dependent AMG-uptake, hSGLT2.

As to `O=C(CCc1ccc(O)cc1)c1c(O)cc(O)cc1O[C@@H]1O[C@H](CO)[C@@H](O)[C@H](O)[C@H]1O` [Phlorizin], the inhibition at 10 µM was found to be 33.4 ± 1.8%.

Broadly, the inhibition is the relative decrease from the control value, in per cent.
